Measured values from ChEMBL document CHEMBL5233260, “Diverse chemical space of indoleamine-2,3-dioxygenase 1 (Ido1) inhibitors” (Eur J Med Chem, 2021).

Sequences of proteins named here, by UniProt entry; tags and fusion partners are left off.
UniProt P14902, whole entry, looked up: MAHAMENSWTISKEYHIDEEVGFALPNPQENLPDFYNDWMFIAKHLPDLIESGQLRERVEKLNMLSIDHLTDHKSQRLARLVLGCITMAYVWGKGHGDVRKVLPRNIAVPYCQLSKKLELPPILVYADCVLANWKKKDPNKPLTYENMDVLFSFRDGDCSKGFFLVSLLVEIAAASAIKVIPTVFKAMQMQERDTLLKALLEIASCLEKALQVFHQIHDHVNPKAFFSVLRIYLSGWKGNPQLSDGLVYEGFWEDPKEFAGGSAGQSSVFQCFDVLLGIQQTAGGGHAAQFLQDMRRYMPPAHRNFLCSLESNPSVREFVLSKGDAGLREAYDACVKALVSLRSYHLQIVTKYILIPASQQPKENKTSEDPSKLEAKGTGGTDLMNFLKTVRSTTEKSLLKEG

Molecular target: Indoleamine 2,3-dioxygenase 1 (Homo sapiens, UniProt P14902)
Details: hela

## COP(C)(=O)NCCCNc1nonc1/C(=N/O)Nc1ccc(F)c(Br)c1 (stereo unspecified)
  IC50: 2.6 nM
